Experimental data taken from PubChem BioAssay (NCI).
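Each compound was tested at five concentrations against cells in 96-well plates for 48 hours. GI50 is the concentration that inhibits growth by half. TGI: total growth inhibition.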

Legend:
Assay in all cases: inhibition of tumour cell growth, NCI panel, 48 h
[1] = test system: HOP-92 NSCLC
[2] = test system: NCI-H23 lung
[3] = test system: NCI-H226 lung
[4] = test system: UACC-257 melanoma

For Cn1cnc(N)c1C(=N)[Se], the GI50 [1] was 75.1 µM, the TGI [1] was greater than 100 µM and the GI50 [2] was 2.67 µM. The TGI [2] was 6.53 µM, the GI50 [3] was 6.12 µM and the TGI [3] was greater than 100 µM. It also gave a GI50 [4] of 4.86 µM and a TGI [4] greater than 100 µM.
